Data reported in publication PMC10638516 (Acta Pharmaceutica Sinica. B, 2023).

Tests used:
ICR mice [1] = test: Forced swimming test; assay type: in vivo, mouse; conditions: 36b 3, 10, 30 mg/kg, DLX 15 mg/kg
ICR mice [2] = test: MK-801-induced hyperactivity; conditions: 3 mg/kg i.p.
mice = test: MK-801-induced novel object recognition disruption; conditions: 36b 30 mg/kg, RPD 1 mg/kg, MK-801 0.2 mg/kg i.p.

Cn1c2c(c3ccccc31)CN(CCCCNC(=O)c1nc3ccccc3[nH]1)CC2 [36b]
FST latency (ICR mice [1]): failed to prolong | inhibition of MK-801-induced hyperactivity at 3 mg/kg (ICR mice [2]): reduced the distance of mice movement | deficit in NOR index induced by MK-801 (mice): alleviated
